# Literature values as cited in paper PMC5970165, “Development and validation of a LC-MS/MS assay for pharmacokinetic studies of complement C5a receptor antagonists PMX53 and PMX205 in mice” (Scientific Reports, 2018).
# Conditions: rat, in vivo; cited from earlier work
smiles,measurement,value
"CC(=O)N[C@@H](Cc1ccccc1)C(=O)N[C@H]1CCCNC(=O)[C@H](CCCNC(=N)N)NC(=O)[C@H](Cc2c[nH]c3ccccc23)NC(=O)[C@@H](CC2CCCCC2)NC(=O)[C@@H]2CCCN2C1=O [PMX53, Ac-Phe-[Orn-Pro-dCha-Trp-Arg]]",oral bioavailability,~ 5%
